AlphaSeq binding of Ab-95 light chain variants to a spike HR2 peptide

The measurements come from Engelhart et al. 2022 (doi:10.1038/s41597-022-01779-4) through the FLAb antibody collection.

Antigen: PDVDLGDISGINAS, a 14-residue peptide of the SARS-CoV-2 spike HR2 region.

Parent scFv Ab-95: VH joined to VL by a (GGGGS)3 linker. Changes lie in the light chain CDRs alone.
VH: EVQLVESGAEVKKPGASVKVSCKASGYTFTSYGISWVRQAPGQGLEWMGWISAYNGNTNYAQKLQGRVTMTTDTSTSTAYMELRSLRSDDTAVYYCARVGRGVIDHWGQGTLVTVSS
VL: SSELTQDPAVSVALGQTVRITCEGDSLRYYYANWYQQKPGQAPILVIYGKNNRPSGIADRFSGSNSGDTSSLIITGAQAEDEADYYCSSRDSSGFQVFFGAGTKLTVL

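The starting antibody came from a phage panning campaign against this peptide. AAYL52 was designed without a model: most single CDR substitutions and a random sample of double and triple ones. The scFvs were displayed on barcoded MATa yeast, the peptide on MATalpha yeast. Mating (16 h, 30 °C) was followed by selection of diploids and sequencing of their barcodes. The ratio of observed to expected reads was calibrated, replicate by replicate, on BCL2-family standards whose Kd was known from biolayer interferometry. The assay was run in three technical replicates.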

Positions count from residue 1 of the parent VL; K50F puts F in place of K. Affinities are written as log10 Kd with Kd in nM; a lower number is a better binder. "n.d." means that the variant was in the library but no mating with the target was seen in that replicate; the authors take this as a sign of poor binding, and no number exists. Three control strains display no target. For library AAYL52, 28% of the pairings with them gave a signal, with a median of 3.91 and one signal in twenty below 2.90, so weak values seen in few replicates may be background. Also given: how often the same scFv was detected with the empty control strains, with their mean in brackets.

changes	replicates, log10 nM	empty controls
K50F+P54Y+S55Y	n.d. / n.d. / n.d.	1 of 9 (4.28)
R28Y+Y30H+G94W	3.13 / 3.65 / 3.76	3 of 9 (4.15)
R28Y+R90F	n.d. / n.d. / n.d.	2 of 9 (4.44)
G49V+S55D+R90Y	3.86 / n.d. / n.d.	1 of 9 (3.70)
S88Q+S92P	3.12 / 2.17 / 1.86	2 of 9 (3.19)
G24F+S93E+G94K	n.d. / n.d. / n.d.	1 of 9 (3.88)
L27S+Y29S+K50E	3.41 / 5.09 / 3.01	0 of 9
G24M+S26D+N33V	n.d. / n.d. / n.d.	2 of 9 (3.80)
S26Q+Y29K+S93F	n.d. / n.d. / n.d.	2 of 9 (3.70)
P54K+S93V	n.d. / 3.81 / 4.88	3 of 9 (4.39)
A32E+F95W+Q96S	2.36 / 2.78 / 2.24	7 of 9 (3.79)
G24K+Y29H+N52L	5.23 / 3.06 / 3.05	0 of 9
Y31A+S88Q+S92F	3.16 / 3.57 / n.d.	1 of 9 (4.67)
G24A+S55P+S92I	2.51 / n.d. / 3.81	2 of 9 (3.26)
E23L+G49Q+P54A	4.09 / 4.69 / 3.48	1 of 9 (3.86)
L27P+N33A+S55F	3.63 / 4.37 / n.d.	4 of 9 (4.23)
S89E+G94P+F95R	3.23 / 4.20 / 3.76	2 of 9 (4.33)
G24K+R28G+D91P	2.79 / 3.41 / 2.73	6 of 9 (3.92)
L27M+Y29K+S88G	3.16 / 2.64 / 2.92	4 of 9 (4.27)
N52K+S88L+Q96F	3.42 / 2.33 / 2.62	1 of 9 (3.82)
K50S+N51V+S93D	3.18 / 3.14 / 2.72	3 of 9 (3.89)
G24N+L27P+F98L	n.d. / n.d. / n.d.	3 of 9 (3.97)
R90V+D91S+S93L	n.d. / n.d. / 3.44	2 of 9 (2.22)
G24T+R53A+Q96H	3.28 / 3.11 / 2.88	3 of 9 (4.09)
N52T+S93E+F95G	2.39 / 2.30 / 3.86	1 of 9 (3.66)
S88C+S93M+F98A	3.84 / 4.53 / n.d.	2 of 9 (3.39)
N33V+S88G+G94R	3.42 / 5.28 / n.d.	7 of 9 (3.93)
Y30K+K50P	1.09 / 0.98 / 0.38	3 of 9 (4.46)
E23L+N51M+V97F	n.d. / n.d. / 4.42	4 of 9 (4.60)
D25Q+Y30M+D91F	2.52 / 2.51 / 1.31	2 of 9 (3.47)
Y29G+R53E+P54C	2.91 / 2.77 / 2.25	2 of 9 (4.71)
A32R+S55M+S88H	n.d. / n.d. / n.d.	3 of 9 (3.84)
Y31A+A32P+N33R	2.08 / 2.40 / 2.29	3 of 9 (3.62)
L27E+K50I+D91V	4.18 / 3.47 / n.d.	4 of 9 (4.51)
Y31G+K50E+S93C	2.33 / 2.12 / 2.30	2 of 9 (4.33)
K50C+Q96N+V97P	2.35 / n.d. / 2.38	1 of 9 (4.06)
G24S+Y31P+F98V	2.74 / 2.66 / 1.94	4 of 9 (4.05)
G49V+N52M+R90F	n.d. / 4.03 / n.d.	2 of 9 (3.99)

The first 5 variants above that were never detected:

changes	replicates, log10 nM	empty controls
K50F+P54Y+S55Y	n.d. / n.d. / n.d.	1 of 9 (4.28)
R28Y+R90F	n.d. / n.d. / n.d.	2 of 9 (4.44)
G24F+S93E+G94K	n.d. / n.d. / n.d.	1 of 9 (3.88)
G24M+S26D+N33V	n.d. / n.d. / n.d.	2 of 9 (3.80)
S26Q+Y29K+S93F	n.d. / n.d. / n.d.	2 of 9 (3.70)